The values that follow come from US20050148586A1 (priority 2004, published 2005).

The target in this assay is T1, glycogen phosphorylase (from rabbit muscle, Sigma P1261) (Oryctolagus cuniculus, UniProt P00489).
T1 construct: glycogen phosphorylase (from rabbit muscle, Sigma P1261); purchased Sigma P1261; host or cells: rabbit muscle (tissue-derived)
T1 sequence (P00489 2-843 limits assumed): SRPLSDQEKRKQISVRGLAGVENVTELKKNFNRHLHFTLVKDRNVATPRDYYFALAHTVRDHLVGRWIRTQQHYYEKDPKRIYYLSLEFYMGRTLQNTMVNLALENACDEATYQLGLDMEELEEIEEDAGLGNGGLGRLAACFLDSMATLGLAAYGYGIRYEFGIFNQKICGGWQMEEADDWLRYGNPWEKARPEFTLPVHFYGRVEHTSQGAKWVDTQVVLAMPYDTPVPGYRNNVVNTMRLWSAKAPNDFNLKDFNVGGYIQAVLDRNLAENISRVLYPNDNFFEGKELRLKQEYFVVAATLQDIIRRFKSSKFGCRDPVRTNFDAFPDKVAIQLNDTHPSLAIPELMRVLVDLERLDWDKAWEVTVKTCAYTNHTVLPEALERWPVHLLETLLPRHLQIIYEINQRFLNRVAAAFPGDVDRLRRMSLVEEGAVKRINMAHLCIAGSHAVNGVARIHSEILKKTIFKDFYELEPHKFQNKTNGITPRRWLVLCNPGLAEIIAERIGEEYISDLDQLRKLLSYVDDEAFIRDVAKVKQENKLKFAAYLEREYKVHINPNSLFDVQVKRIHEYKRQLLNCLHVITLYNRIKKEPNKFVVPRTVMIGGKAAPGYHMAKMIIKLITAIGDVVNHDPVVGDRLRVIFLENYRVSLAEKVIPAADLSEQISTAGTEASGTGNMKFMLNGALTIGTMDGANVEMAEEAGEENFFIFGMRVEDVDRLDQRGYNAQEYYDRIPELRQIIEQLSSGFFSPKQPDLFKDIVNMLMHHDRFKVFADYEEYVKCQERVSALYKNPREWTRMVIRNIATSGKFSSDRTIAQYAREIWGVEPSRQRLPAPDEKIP
The assay can be described thus: Enzyme Inhibition Assay (malachite green phosphate readout). The format is biochemical. The conditions noted are these: +/−.05.

The structures appear in SMILES notation.

Consider `O=C(NCc1cccs1)c1ccc(Nc2nc3ccccc3n(CCN3CCCCC3)c2=O)cc1` [Compound 62], for which the IC50 turned out to be 420 nM.

What is called IC50 is the concentration that gives 50% inhibition. Lower therefore signals greater potency.
